Data: ChEMBL document CHEMBL5036359, “Repositioning Food and Drug Administration-Approved Drugs for Inhibiting Biliverdin IXβ Reductase B as a Novel Thrombocytopenia Therapeutic Target” (J Med Chem, 2022)

Experiments:
[1] = molecular target: T1, Flavin reductase (NADPH) (Homo sapiens) (UniProt P30043); experiment: Binding affinity to human N-terminal His6-tagged and thrombin cleavage fused BLVRB expressed in Escherichia coli BL21 (DE3) assessed as change in enthalpy by isothermal titration calorimetry
T1 sequence (whole entry): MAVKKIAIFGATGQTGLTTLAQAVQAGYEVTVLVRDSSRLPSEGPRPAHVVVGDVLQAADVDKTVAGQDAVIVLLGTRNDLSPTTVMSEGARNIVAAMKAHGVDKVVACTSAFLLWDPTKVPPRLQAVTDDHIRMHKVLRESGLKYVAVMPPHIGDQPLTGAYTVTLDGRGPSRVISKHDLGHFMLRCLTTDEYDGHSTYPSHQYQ

[2] = molecular target: T1, Flavin reductase (NADPH) (Homo sapiens); experiment: Binding affinity to human N-terminal His6-tagged and thrombin cleavage fused BLVRB expressed in Escherichia coli BL21 (DE3) assessed as change in gibbs free energy by isothermal titration calorimetry

deltaH [1]: -9.79 kcal/mol | deltaG [2]: -9.79 kcal/mol
Compound: O=C(O)c1cc(/N=N/c2ccc(O)c(C(=O)O)c2)ccc1O
